Columns and labels:
[1] = molecular target: Alpha-1A adrenergic receptor (Homo sapiens) (UniProt P35348); settings: Compound concentration 10 µM, Radioligand [3H]-Prazosin
[2] = molecular target: Alpha-1B adrenergic receptor (Homo sapiens) (UniProt P35368); settings: Compound concentration 10 µM, Radioligand [3H]-Prazosin
[3] = molecular target: Alpha-2A adrenergic receptor (Homo sapiens) (UniProt P08913); settings: Compound concentration 10 µM, Radioligand [3H]-Rauwolscine
[4] = molecular target: Alpha-2B adrenergic receptor (Homo sapiens) (UniProt P18089); settings: Compound concentration 10 µM, Radioligand [3H]-Rauwolscine
[5] = molecular target: Alpha-2C adrenergic receptor (Homo sapiens) (UniProt P18825); settings: Compound concentration 10 µM, Radioligand [3H]-Rauwolscine
[6] = molecular target: Beta-1 adrenergic receptor (Homo sapiens) (UniProt P08588); settings: Compound concentration 10 µM, Radioligand [125I]-Pindolol
[7] = molecular target: Beta-2 adrenergic receptor (Homo sapiens) (UniProt P07550); settings: Compound concentration 10 µM, Radioligand [3H]-CGP12177
[8] = molecular target: Muscarinic acetylcholine receptor M1 (Homo sapiens) (UniProt P11229); settings: Compound concentration 10 µM, Radioligand [3H]-QNB
[9] = molecular target: Muscarinic acetylcholine receptor M3 (Homo sapiens) (UniProt P20309); settings: Compound concentration 10 µM, Radioligand [3H]-QNB
[10] = molecular target: Muscarinic acetylcholine receptor M5 (Homo sapiens) (UniProt P08912); settings: Compound concentration 10 µM, Radioligand [3H]-QNB
[11] = molecular target: D(1A) dopamine receptor (Homo sapiens) (UniProt P21728); settings: Compound concentration 10 µM, Radioligand [3H]-SCH23390
[12] = molecular target: D(2) dopamine receptor (Homo sapiens) (UniProt P14416); settings: Compound concentration 10 µM, Radioligand [3H]-N-Methylspiperone
[13] = molecular target: D(3) dopamine receptor (Homo sapiens) (UniProt P35462); settings: Compound concentration 10 µM, Radioligand [3H]-N-Methylspiperone
[14] = molecular target: D(4) dopamine receptor (Homo sapiens) (UniProt P21917); settings: Compound concentration 10 µM, Radioligand [3H]-N-Methylspiperone
[15] = molecular target: D(1B) dopamine receptor (Homo sapiens) (UniProt P21918); settings: Compound concentration 10 µM, Radioligand [3H]-SCH23390
[16] = molecular target: Histamine H1 receptor (Homo sapiens) (UniProt P35367); settings: Compound concentration 10 µM, Radioligand [3H]-Pyrilamine
[17] = molecular target: Histamine H4 receptor (Homo sapiens) (UniProt Q9H3N8); settings: Compound concentration 10 µM, Radioligand [3H]-Histamine
[18] = molecular target: 5-hydroxytryptamine receptor 1A (Homo sapiens) (UniProt P08908); settings: Compound concentration 10 µM, Radioligand [3H]-WAY100635
[19] = molecular target: 5-hydroxytryptamine receptor 1B (Homo sapiens) (UniProt P28222); settings: Compound concentration 10 µM, Radioligand [3H]-GR125743
[20] = molecular target: 5-hydroxytryptamine receptor 1D (Homo sapiens) (UniProt P28221); settings: Compound concentration 10 µM, Radioligand [3H]-GR125743
[21] = molecular target: 5-hydroxytryptamine receptor 1E (Homo sapiens) (UniProt P28566); settings: Compound concentration 10 µM, Radioligand [3H]-5-HT
[22] = molecular target: 5-hydroxytryptamine receptor 2A (Homo sapiens) (UniProt P28223); settings: Compound concentration 10 µM, Radioligand [3H]-Ketanserin
[23] = molecular target: 5-hydroxytryptamine receptor 2B (Homo sapiens) (UniProt P41595); settings: Compound concentration 10 µM, Radioligand [3H]-LSD
[24] = molecular target: 5-hydroxytryptamine receptor 2C (Homo sapiens) (UniProt P28335); settings: Compound concentration 10 µM, Radioligand [3H]-Mesulergine
[25] = molecular target: 5-hydroxytryptamine receptor 3A (Homo sapiens) (UniProt P46098); settings: Compound concentration 10 µM, Radioligand [3H]-GR65630
[26] = molecular target: 5-hydroxytryptamine receptor 5A (Homo sapiens) (UniProt P47898); settings: Compound concentration 10 µM, Radioligand [3H]-LSD
[27] = molecular target: 5-hydroxytryptamine receptor 7 (Homo sapiens) (UniProt P34969); settings: Compound concentration 10 µM, Radioligand [3H]-LSD
[28] = molecular target: Delta-type opioid receptor (Homo sapiens) (UniProt P41143); settings: Compound concentration 10 µM, Radioligand [3H]-DADLE
[29] = molecular target: Kappa-type opioid receptor (Homo sapiens) (UniProt P41145); settings: Compound concentration 10 µM, Radioligand [3H]-U69593
[30] = molecular target: Mu-type opioid receptor (Homo sapiens) (UniProt P35372); settings: Compound concentration 10 µM, Radioligand [3H]-DAMGO
[31] = molecular target: Sodium-dependent noradrenaline transporter (Homo sapiens) (UniProt P23975); settings: Compound concentration 10 µM, Radioligand [3H]-Nisoxetine
[32] = molecular target: Sodium-dependent dopamine transporter (Homo sapiens) (UniProt Q01959); settings: Compound concentration 10 µM, Radioligand [3H]-WIN35428
[33] = molecular target: Sodium-dependent serotonin transporter (Homo sapiens) (UniProt P31645); settings: Compound concentration 10 µM, Radioligand [3H]-Citalopram
[34] = molecular target: Sigma intracellular receptor 2 (Homo sapiens) (UniProt Q5BJF2); settings: Compound concentration 10 µM, Radioligand [3H]-DTG
[35] = molecular target: Translocator protein (Homo sapiens) (UniProt P30536); settings: Compound concentration 10 µM, Radioligand [3H]-PK11195

The chains behind the UniProt entries cited, without tags or fusion partners. Where a name states a change or a piece, a line headed by the entry shows the natural chain unless it says otherwise.
UniProt P35368, whole entry, looked up: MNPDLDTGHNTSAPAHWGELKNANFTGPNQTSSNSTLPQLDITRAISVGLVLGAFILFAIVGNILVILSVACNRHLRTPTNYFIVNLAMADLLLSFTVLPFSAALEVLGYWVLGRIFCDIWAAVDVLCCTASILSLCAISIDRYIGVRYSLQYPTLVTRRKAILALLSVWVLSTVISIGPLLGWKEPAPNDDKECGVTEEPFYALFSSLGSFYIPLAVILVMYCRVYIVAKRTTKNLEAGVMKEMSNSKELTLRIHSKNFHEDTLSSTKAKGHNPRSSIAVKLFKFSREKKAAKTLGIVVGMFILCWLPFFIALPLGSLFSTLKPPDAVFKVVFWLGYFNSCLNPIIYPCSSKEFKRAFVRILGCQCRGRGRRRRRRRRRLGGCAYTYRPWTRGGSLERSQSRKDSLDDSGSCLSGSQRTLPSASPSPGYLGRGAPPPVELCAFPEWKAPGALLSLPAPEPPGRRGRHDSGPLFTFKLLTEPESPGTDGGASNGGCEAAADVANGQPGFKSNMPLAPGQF
UniProt P08913, whole entry, looked up: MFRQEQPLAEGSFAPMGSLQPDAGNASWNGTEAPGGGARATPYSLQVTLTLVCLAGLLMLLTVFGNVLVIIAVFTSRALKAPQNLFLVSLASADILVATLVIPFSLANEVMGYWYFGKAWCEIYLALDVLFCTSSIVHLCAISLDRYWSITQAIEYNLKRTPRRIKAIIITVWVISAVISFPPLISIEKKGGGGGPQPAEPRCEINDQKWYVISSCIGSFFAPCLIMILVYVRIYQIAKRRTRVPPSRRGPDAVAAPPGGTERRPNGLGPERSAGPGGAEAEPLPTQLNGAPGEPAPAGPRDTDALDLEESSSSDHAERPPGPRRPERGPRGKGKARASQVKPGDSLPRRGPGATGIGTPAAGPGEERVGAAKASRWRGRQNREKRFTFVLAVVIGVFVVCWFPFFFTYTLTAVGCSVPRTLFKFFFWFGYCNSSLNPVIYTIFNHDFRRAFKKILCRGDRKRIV
UniProt P18089, whole entry, looked up: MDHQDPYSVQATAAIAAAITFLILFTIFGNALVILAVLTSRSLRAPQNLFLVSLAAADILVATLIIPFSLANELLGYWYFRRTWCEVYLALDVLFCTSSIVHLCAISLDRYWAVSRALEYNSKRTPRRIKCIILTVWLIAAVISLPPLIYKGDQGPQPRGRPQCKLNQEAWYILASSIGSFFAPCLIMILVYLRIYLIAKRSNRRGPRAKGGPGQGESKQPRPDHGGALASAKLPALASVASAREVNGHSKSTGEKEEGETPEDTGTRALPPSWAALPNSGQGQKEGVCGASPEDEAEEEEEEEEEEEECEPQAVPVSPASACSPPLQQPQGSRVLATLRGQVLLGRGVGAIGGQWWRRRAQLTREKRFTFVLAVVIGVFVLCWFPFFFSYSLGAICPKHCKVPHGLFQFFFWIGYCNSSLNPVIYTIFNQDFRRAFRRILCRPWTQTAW
UniProt P18825, whole entry, looked up: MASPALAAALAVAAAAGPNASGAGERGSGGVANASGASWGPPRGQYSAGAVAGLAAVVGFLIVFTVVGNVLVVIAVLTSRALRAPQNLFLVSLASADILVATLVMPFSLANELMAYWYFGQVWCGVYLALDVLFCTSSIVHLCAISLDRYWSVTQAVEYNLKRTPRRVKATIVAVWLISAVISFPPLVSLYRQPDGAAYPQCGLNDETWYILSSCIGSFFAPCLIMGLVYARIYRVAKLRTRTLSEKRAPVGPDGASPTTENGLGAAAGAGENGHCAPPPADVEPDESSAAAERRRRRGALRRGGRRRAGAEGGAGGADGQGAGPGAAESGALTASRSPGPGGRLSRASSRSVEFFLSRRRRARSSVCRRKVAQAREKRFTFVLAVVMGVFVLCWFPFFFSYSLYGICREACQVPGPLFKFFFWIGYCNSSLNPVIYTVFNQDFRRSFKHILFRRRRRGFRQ
UniProt P08588, whole entry, looked up: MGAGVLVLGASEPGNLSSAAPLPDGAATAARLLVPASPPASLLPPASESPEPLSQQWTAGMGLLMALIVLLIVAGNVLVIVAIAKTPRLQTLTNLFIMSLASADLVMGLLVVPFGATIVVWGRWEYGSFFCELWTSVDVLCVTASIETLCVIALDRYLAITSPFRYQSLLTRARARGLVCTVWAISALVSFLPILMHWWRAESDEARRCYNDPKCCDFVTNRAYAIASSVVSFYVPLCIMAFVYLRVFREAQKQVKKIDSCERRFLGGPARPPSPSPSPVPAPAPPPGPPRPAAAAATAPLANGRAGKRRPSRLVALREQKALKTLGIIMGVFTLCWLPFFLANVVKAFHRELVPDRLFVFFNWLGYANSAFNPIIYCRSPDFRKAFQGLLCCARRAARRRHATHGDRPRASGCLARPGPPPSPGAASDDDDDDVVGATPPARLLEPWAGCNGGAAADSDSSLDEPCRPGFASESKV
UniProt P11229: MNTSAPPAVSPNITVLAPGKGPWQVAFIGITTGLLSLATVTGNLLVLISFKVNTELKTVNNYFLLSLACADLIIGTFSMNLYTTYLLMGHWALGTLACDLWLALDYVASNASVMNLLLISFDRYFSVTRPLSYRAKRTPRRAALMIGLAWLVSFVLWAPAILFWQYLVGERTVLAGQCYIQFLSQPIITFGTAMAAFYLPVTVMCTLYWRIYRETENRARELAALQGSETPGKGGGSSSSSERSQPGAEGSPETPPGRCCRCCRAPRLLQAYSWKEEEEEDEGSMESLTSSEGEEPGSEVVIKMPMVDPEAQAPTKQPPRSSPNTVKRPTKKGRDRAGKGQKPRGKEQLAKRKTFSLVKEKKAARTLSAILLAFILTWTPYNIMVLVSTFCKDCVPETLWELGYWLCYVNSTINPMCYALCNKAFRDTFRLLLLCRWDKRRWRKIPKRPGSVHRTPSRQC
UniProt P08912, whole entry, looked up: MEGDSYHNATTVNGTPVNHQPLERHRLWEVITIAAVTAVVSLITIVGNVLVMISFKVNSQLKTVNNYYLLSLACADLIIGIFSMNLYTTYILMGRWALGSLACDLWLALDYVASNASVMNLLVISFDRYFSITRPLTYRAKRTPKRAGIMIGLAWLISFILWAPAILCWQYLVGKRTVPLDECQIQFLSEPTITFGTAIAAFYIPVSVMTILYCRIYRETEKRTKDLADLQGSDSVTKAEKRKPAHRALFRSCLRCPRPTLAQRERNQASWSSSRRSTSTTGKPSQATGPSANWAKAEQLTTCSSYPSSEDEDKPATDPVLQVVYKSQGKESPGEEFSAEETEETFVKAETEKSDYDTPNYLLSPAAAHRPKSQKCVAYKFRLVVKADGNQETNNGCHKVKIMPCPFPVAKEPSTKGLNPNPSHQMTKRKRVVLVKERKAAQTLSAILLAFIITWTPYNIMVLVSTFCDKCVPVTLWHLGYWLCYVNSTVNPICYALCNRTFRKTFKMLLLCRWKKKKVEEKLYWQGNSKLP
UniProt P21728, whole entry, looked up: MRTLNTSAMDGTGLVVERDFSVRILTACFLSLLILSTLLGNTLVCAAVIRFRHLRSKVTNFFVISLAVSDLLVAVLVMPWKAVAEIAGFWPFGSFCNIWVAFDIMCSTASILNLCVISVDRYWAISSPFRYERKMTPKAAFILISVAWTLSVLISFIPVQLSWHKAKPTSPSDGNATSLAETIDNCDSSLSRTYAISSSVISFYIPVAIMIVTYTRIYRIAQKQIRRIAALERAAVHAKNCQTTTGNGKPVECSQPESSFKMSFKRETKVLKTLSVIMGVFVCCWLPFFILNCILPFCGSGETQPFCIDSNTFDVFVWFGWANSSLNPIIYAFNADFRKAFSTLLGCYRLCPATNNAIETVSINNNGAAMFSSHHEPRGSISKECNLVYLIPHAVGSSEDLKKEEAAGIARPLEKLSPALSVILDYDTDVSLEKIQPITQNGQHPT
UniProt P21917, whole entry, looked up: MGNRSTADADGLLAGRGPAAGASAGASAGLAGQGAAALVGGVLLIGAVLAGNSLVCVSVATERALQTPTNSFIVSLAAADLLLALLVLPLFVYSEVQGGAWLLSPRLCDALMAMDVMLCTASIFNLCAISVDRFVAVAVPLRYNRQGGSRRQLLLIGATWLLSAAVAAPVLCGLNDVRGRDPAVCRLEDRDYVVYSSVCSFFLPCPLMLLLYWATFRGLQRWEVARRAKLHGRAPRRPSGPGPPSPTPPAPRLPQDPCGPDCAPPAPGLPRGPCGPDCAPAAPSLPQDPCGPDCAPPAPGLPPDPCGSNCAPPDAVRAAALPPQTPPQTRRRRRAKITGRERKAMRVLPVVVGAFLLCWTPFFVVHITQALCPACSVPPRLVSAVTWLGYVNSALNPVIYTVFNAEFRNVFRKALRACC
UniProt Q9H3N8: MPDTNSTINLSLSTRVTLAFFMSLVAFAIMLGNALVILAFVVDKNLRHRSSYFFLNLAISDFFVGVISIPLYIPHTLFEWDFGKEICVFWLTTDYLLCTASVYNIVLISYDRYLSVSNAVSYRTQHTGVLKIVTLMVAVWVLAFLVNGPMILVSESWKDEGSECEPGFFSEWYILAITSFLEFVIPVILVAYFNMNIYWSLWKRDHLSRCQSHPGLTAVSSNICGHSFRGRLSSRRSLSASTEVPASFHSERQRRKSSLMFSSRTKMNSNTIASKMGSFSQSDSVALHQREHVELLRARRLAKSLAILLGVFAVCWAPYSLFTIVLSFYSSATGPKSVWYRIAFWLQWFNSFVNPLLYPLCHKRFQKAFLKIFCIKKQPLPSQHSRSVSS
UniProt P28222, whole entry, looked up: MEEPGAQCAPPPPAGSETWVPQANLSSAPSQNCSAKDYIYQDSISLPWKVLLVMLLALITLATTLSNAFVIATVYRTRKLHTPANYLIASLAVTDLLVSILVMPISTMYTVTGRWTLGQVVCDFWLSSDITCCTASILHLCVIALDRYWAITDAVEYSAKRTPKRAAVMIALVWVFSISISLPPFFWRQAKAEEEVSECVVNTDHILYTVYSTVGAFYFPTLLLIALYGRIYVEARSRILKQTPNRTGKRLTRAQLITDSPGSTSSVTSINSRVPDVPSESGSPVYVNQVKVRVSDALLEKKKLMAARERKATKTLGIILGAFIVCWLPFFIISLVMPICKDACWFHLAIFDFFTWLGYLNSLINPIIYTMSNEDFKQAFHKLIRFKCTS
UniProt P28566: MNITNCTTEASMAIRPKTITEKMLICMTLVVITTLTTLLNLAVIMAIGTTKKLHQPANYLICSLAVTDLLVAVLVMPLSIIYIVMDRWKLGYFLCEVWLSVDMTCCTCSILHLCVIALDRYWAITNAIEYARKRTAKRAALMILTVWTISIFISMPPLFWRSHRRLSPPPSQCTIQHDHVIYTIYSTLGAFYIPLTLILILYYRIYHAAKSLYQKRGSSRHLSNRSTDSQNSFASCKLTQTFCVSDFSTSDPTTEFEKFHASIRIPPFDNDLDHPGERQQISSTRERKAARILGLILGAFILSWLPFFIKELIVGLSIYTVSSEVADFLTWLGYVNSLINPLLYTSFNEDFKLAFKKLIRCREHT
UniProt P47898, whole entry, looked up: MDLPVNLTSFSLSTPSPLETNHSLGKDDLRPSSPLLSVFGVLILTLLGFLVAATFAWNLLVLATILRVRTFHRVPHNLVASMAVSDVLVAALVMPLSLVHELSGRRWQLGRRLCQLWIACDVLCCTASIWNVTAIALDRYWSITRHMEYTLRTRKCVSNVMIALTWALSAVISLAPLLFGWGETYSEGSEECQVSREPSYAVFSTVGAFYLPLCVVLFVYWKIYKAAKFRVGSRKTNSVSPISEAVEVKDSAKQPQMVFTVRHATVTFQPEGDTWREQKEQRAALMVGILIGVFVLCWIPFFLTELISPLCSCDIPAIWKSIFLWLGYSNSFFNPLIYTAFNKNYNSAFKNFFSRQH
UniProt P23975, whole entry, looked up: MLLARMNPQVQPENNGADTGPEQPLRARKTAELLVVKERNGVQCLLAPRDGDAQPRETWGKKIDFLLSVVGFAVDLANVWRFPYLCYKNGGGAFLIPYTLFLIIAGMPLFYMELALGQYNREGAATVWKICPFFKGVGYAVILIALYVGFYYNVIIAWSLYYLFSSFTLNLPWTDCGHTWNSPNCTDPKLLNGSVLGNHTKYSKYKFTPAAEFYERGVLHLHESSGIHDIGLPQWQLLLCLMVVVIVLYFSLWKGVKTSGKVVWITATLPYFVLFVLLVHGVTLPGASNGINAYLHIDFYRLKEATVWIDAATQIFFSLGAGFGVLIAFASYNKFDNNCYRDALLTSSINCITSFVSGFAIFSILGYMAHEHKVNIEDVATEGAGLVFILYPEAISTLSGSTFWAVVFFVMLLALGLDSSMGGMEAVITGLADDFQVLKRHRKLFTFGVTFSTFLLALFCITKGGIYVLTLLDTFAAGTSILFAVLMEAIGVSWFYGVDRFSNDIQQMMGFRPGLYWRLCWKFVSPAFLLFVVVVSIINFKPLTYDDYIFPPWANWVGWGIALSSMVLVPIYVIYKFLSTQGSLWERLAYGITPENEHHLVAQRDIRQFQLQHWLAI
UniProt Q5BJF2, whole entry, looked up: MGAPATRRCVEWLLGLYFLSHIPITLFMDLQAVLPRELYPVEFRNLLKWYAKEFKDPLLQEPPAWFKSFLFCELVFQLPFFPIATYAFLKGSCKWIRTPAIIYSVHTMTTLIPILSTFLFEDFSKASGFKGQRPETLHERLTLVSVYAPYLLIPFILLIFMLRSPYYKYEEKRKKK

SMILES: O=C1NCN(c2ccccc2)C12CCN(CC1COc3ccccc3O1)CC2 (stereo not given)
- inhibition [1]: 92.7%
- inhibition [2]: 91%
- inhibition [3]: 103%
- inhibition [4]: 97.7%
- inhibition [5]: 103%
- inhibition [6]: 3.03%
- inhibition [7]: 18.9%
- inhibition [8]: 9.97%
- inhibition [9]: -2.5%
- inhibition [10]: 0.77%
- inhibition [11]: 0.86%
- inhibition [12]: 100%
- inhibition [13]: 80.3%
- inhibition [14]: 65.8%
- inhibition [15]: -3.83%
- inhibition [16]: 36%
- inhibition [17]: 6.79%
- inhibition [18]: 101%
- inhibition [19]: 14.1%
- inhibition [20]: 43.4%
- inhibition [21]: 47.6%
- inhibition [22]: 87%
- inhibition [23]: 89.8%
- inhibition [24]: 11.5%
- inhibition [25]: 3.22%
- inhibition [26]: 57.6%
- inhibition [27]: 98.5%
- inhibition [28]: 21.9%
- inhibition [29]: 84.5%
- inhibition [30]: 98.6%
- inhibition [31]: 52.5%
- inhibition [32]: 49.4%
- inhibition [33]: 12.5%
- inhibition [34]: 90.4%
- inhibition [35]: 10.4%

Source: ChEMBL document CHEMBL5442219
